{"source": "paper PMC6201930", "about": "“The minor gentamicin complex component, X2, is a potent premature stop codon readthrough molecule with therapeutic potential” (PLoS ONE, 2018)", "tested_on": "zebrafish neuromasts (hair cells)", "details": "in vivo", "data": [{"substance": "gentamicin", "values": [{"measurement": "Neuromast (CC50)", "value": "2800 ± 1200", "unit": "nM"}]}]}
